Values of other authors in PMC11532403, “First-in-human, phase 1 dose-escalation and dose-expansion study of a RET inhibitor SY-5007 in patients with advanced RET-altered solid tumors” (Signal Transduction and Targeted Therapy, 2024).

Test system: RET-altered / thyroid / lung tumors
Settings: DECISION, RAI-refractory DTC ref 80; cited from earlier work

CNC(=O)c1cc(Oc2ccc(NC(=O)Nc3ccc(Cl)c(C(F)(F)F)c3)cc2)ccn1 [sorafenib]
Median PFS: 10.8 months
